Only a part is listed here, and it is no random draw. Some salts or complexes appear as unconnected parts, following the source record. The source made the active and inactive calls. No stated cut-off is given here; in the data, active means inhibition above about 50%; inactive means the rest.

Chains of the proteins cited; added tags and fusions are not shown.
UniProt O75030, whole entry: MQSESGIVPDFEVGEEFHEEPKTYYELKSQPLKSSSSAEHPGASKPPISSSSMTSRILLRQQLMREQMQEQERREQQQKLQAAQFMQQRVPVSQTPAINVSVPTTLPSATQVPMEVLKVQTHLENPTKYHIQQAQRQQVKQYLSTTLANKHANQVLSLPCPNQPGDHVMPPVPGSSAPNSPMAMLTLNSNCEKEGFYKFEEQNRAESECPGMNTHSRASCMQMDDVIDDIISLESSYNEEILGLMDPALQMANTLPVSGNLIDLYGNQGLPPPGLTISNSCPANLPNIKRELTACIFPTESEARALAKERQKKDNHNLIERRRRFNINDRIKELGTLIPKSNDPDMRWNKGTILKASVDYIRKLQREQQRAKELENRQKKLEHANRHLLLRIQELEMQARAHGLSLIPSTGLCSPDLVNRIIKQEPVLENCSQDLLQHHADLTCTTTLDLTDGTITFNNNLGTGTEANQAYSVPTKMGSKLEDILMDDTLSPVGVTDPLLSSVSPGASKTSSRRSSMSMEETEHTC

The values that follow come from PubChem BioAssay AID1259374 (The Scripps Research Institute Molecular Screening Center, 2018).

In this test the target is Microphthalmia-associated transcription factor (Homo sapiens) (UniProt O75030). Put plainly: MITF inhibitors, primary screen, biochemical, AlphaScreen, human (AID 1259374).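 Further: 0% = vehicle wells with protein.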 The conditions noted are these: AlphaScreen MITF homodimerization, bead proximity signal; at 2.6 µM; hits give high values.
Take `C=CCN1CCN(CCOC(=O)C(O)(c2ccccc2)c2ccccc2)CC1`: the inhibition is inactive: 0.71%. As for `CP(=O)(O)Oc1cccc(Cl)c1Cl`, the inhibition was inactive: 4.54%. Under `Cc1cc(-c2cccc3ccccc23)c(C)cn1.O=[N+]([O-])c1cc([N+](=O)[O-])c(O)c([N+](=O)[O-])c1` stands inactive: -8.47%; under `O=[N+]([O-])c1cc([N+](=O)[O-])c(NCC2CCS(=O)(=O)C2)c([N+](=O)[O-])c1` (stereo unspecified), inactive: 19.7%; under `Cc1ccc(Cl)c(OP(C)(=O)Nc2cccnc2)c1` (stereo unspecified), inactive: -12.9%. For the compound `CCOC(=O)c1ccc(NP(C)(=O)Oc2ccc(F)cc2)cc1` (stereo unspecified), the inhibition was inactive: -10.4%. With `O=C(c1c([N+](=O)[O-])cc([N+](=O)[O-])cc1[N+](=O)[O-])N1CCOCC1` the figure was inactive: 4.6%.

On to `CP(=O)(Nc1ccccc1)Oc1ccc(F)cc1` (stereo unspecified), for which the inhibition was inactive: 2.64%. As to `COc1cc2c(cc1NP(C)(=O)Oc1ccccc1)oc1ccccc12` (stereo unspecified), the inhibition is inactive: 6.44%.

For the compound `Cc1ccc(NP(C)(=O)Oc2ccc(Cl)cc2)cc1` (stereo unspecified), the inhibition is inactive: 3.53%. In the case of `CP(=O)(O)OC(c1ccccc1)C(Cl)(Cl)Cl` (stereo unspecified), the inhibition was inactive: 4.55%. Consider `CP(=O)(Nc1ccccc1F)Oc1ccccc1` (stereo unspecified), for which the inhibition is inactive: -8.1%. With `C=CCNc1c([N+](=O)[O-])cc([N+](=O)[O-])c(C)c1[N+](=O)[O-]`, the inhibition is inactive: -2.93%.

`Nc1c([N+](=O)[O-])cc([N+](=O)[O-])c2nonc12`: the inhibition was inactive: -36.6%. With `CCP1(=O)Oc2cc(C(C)(C)C)cc(C(C)(C)C)c2O1` (stereo unspecified) the figure was inactive: 6.52%. With `Cc1cc([N+](=O)[O-])c(NCC(C)([N+](=O)[O-])[N+](=O)[O-])c([N+](=O)[O-])c1[N+](=O)[O-]`, the inhibition was inactive: 0.44%. Turning to `CP(=O)(Nc1cccnc1)Oc1ccc(Cl)cc1` (stereo unspecified), the inhibition is inactive: -10.5%.

With `O=C(OCCN1CCN(CCOCc2ccccc2)CC1)C(O)(c1ccccc1)c1ccccc1`, the inhibition is inactive: -2.55%. As for `CN(C)CCOC(=O)C(O)(c1ccccc1)C1CCCC1` (stereo unspecified), the inhibition was inactive: 1.15%. Consider `CCN(CC)CCOC(=O)C(O)(c1ccccc1)C1CCCCC1` (stereo unspecified), for which the inhibition is inactive: 4.35%. In the case of `COc1ccc(OP(C)(=O)Nc2ccccn2)cc1` (stereo unspecified), the inhibition is inactive: 9.65%. Turning to `COc1ccccc1OP(C)(=O)Nc1ccc(Br)cc1` (stereo unspecified), the inhibition is inactive: -5.44%. Consider `NC(=O)c1c([N+](=O)[O-])cc([N+](=O)[O-])cc1[N+](=O)[O-]`, for which the inhibition is inactive: 14.3%. Consider `CN(C)c1c([N+](=O)[O-])cc([N+](=O)[O-])c(N(C)C)c1[N+](=O)[O-]`, for which the inhibition is inactive: 16%. For `CC(CN(C)C)OC(=O)C(O)(c1ccccc1)c1ccccc1` (stereo unspecified), the inhibition was inactive: 5.13%. With `CP(=O)(Nc1ccc(F)cc1)Oc1ccc(Cl)cc1` (stereo unspecified), the inhibition was inactive: 3.03%. In the case of `Cc1c(NP(C)(=O)Oc2ccc(C(C)C)cc2)c(=O)n(-c2ccccc2)n1C` (stereo unspecified), the inhibition was inactive: 20.2%. Turning to `CCOP(C)(=S)SCN(CC(=O)O)C(=O)OCc1ccccc1` (stereo unspecified), the inhibition is inactive: -2.21%.

In the case of `O=[N+]([O-])c1cc([N+](=O)[O-])c(Nc2ccccn2)c([N+](=O)[O-])c1`, the inhibition was inactive: 19.2%. As to `Nc1c([N+](=O)[O-])cc([N+](=O)[O-])c(Nc2ccccc2C(=O)O)c1[N+](=O)[O-]`, the inhibition is inactive: 1.87%. For the compound `COc1ccc(OP(C)(=O)Nc2ccccc2Br)cc1` (stereo unspecified), the inhibition was inactive: 7.31%. Under `COc1ccccc1OP(C)(=O)Nc1ccc(C)c(C)c1` (stereo unspecified) stands inactive: -4.75%.

On to `C/C1=C2N=C(/C=C3N=C(/C(C)=C4\[N-][C@@](C)([C@@H]5N=C1[C@](C)(CCC(=O)NC[C@@H](C)OP(=O)(O)O[C@H]1[C@@H](O)[C@@H](n6cnc7cc(C)c(C)cc76)O[C@@H]1CO)[C@H]5CC(N)=O)[C@@](C)(CC(N)=O)[C@@H]4CCC(N)=O)[C@@](C)(CC(N)=O)[C@@H]\3CCC(N)=O)C(C)(C)[C@@H]/2CCC(N)=O.[C-]#N.[Co+3]`, for which the inhibition was inactive: 5.28%. For `CCCCOc1ccc(NP(C)(=O)Oc2ccccc2OC)cc1` (stereo unspecified), the inhibition is inactive: -1.36%. As for `CP(=O)(Nc1ccc(Cl)cc1Cl)Oc1ccccc1` (stereo unspecified), the inhibition is inactive: 4.08%.

For the compound `CP(=O)(OCCOc1ccccc1)OCCOc1ccccc1`, the inhibition was inactive: 19%. For `O=[N+]([O-])c1cc([N+](=O)[O-])c(N2CCCCCC2)c([N+](=O)[O-])c1`, the inhibition is inactive: 38%. On to `COCC(CN(C)[N+](=O)[O-])O[N+](=O)[O-]` (stereo unspecified), for which the inhibition was inactive: -4.25%. With `Cc1cccc(C)c1OP(C)(=O)Nc1ccccc1` (stereo unspecified) the figure was inactive: 0.07%; with `O=[N+]([O-])c1cc([N+](=O)[O-])c(Nc2ccccc2)c([N+](=O)[O-])c1`, inactive: -2.81%; with `CP(=O)(OC12CC3CC(CC(C3)C1)C2)OC12CC3CC(CC(C3)C1)C2`, inactive: 7.72%. Turning to `CCOC(=O)c1ccc(NP(C)(=O)Oc2ccc(Cl)cc2)cc1` (stereo unspecified), the inhibition is inactive: -6.93%. Take `CP(=O)(Nc1cccc(Cl)c1)Nc1cccc(Cl)c1`: the inhibition was inactive: 6.61%. For `NNc1c([N+](=O)[O-])cc([N+](=O)[O-])cc1[N+](=O)[O-]`, the inhibition was inactive: 9.06%.

On to `Nc1nonc1-[n+]1nc2nonc2[n-]1`, for which the inhibition was inactive: 1.08%. Regarding `CC(C)c1ccc(OP(C)(=O)O)cc1`, the inhibition was inactive: 15.6%. For the compound `CN(c1nc2nonc2nc1N(C)[N+](=O)[O-])[N+](=O)[O-]`, the inhibition was inactive: 12.7%. Take `C/C1=C2N=C(/C=C3N=C(/C(C)=C4\[N-]C(C(CC(N)=O)C4(C)CCC(=O)NCC(C)OP(=O)([O-])OC4C(CO)OC(n5cnc6cc(C)c(C)cc65)C4O)C4(C)N=C1C(CCC(N)=O)C4(C)CC(N)=O)C(CCC(N)=O)C\3(C)C)C(CCC(N)=O)C/2(C)CC(N)=O.C/C1=C2N=C(/C=C3N=C(/C(C)=C4\[N-]C(C(CC(N)=O)C4(C)CCC(=O)NCC(C)OP(=O)([O-])OC4C(CO)OC(n5cnc6cc(C)c(C)cc65)C4O)C4(C)N=C1C(CCC(N)=O)C4(C)CC(N)=O)C(CCC(N)=O)C\3(C)C)C(CCC(N)=O)C/2(C)CC(N)=O.[C-]#N.[Co+3]` (stereo unspecified): the inhibition is inactive: -50.6%.

For `N1=Nc2nonc2N=Nc2nonc21`, the inhibition is inactive: 9.49%. With `O=[N+]([O-])c1cc([N+](=O)[O-])c(N2CCOCC2)c([N+](=O)[O-])c1`, the inhibition was inactive: 13.1%.

For the compound `CP(=O)(Oc1ccccc1)N1CCOC1=O` (stereo unspecified), the inhibition is inactive: 19%.

For the compound `OCCSCCO`, the inhibition is inactive: -19.3%. `COc1ccccc1OP(C)(=O)Nc1c(C)n(C)n(-c2ccccc2)c1=O` (stereo unspecified): the inhibition is inactive: 15.5%. For the compound `O=[N+]([O-])c1cc([N+](=O)[O-])c(NCc2ccccc2)c([N+](=O)[O-])c1`, the inhibition was inactive: 13.5%. `COc1ccc(OP(C)(=O)Nc2ccc(Br)cc2)cc1` (stereo unspecified): the inhibition was inactive: 10.1%.

As for `CCc1ccc(OP(C)(=O)Nc2ccc(I)cc2)cc1` (stereo unspecified), the inhibition is inactive: 16.4%. Consider `CN1CCCC1=C1c2cc([N+](=O)[O-])cc([N+](=O)[O-])c2-c2c1cc([N+](=O)[O-])cc2[N+](=O)[O-]`, for which the inhibition was inactive: -5.31%. Regarding `O=C(Nc1ccccc1O)c1c([N+](=O)[O-])cc([N+](=O)[O-])cc1[N+](=O)[O-]`, the inhibition was inactive: 4.5%.

For `CP(=O)(Nc1ccc(F)c(Cl)c1)Oc1ccccc1` (stereo unspecified), the inhibition is inactive: -17.8%.

Consider `O=[N+]([O-])c1cc([N+](=O)[O-])c(Nc2ccccc2CO)c([N+](=O)[O-])c1`, for which the inhibition was inactive: 10.8%. With `CN(C)C(=O)c1c([N+](=O)[O-])cc([N+](=O)[O-])cc1[N+](=O)[O-]` the figure was inactive: 3.47%; with `CN(C)/C=C(\C=O)c1c([N+](=O)[O-])cc([N+](=O)[O-])cc1[N+](=O)[O-]`, inactive: 20.1%; with `CP(=O)(Nc1ccc(Cl)cc1)Oc1ccc(F)cc1` (stereo unspecified), inactive: -0.33%. For `COc1cccc(C(OP(C)(=O)O)C(F)(F)F)c1` (stereo unspecified), the inhibition is inactive: -4.87%. With `Cc1c([N+](=O)[O-])cc([N+](=O)[O-])c(Nc2ccc(C(=O)O)cc2)c1[N+](=O)[O-]` the figure was inactive: -13.5%.

Take `[O-][n+]1onc2c1c1no[n+]([O-])c1c1no[n+]([O-])c21`: the inhibition is inactive: 4.54%.
